Patent publication US7495109B2, “Nociceptin analogs” (dated 2009)

The chains behind the UniProt entries cited, without tags or fusion partners. Where a name states a change or a piece, a line headed by the entry shows the natural chain unless it says otherwise.
UniProt P41146: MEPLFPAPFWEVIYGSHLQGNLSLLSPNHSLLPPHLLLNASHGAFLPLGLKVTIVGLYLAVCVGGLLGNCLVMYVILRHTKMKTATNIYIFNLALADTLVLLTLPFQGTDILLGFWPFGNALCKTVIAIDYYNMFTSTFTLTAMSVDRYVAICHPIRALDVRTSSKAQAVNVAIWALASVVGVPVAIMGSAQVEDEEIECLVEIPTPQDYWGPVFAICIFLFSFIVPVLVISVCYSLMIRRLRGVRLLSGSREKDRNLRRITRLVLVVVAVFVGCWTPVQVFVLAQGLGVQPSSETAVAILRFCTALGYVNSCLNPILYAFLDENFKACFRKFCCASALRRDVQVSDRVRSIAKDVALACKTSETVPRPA
UniProt P35372, whole entry, looked up: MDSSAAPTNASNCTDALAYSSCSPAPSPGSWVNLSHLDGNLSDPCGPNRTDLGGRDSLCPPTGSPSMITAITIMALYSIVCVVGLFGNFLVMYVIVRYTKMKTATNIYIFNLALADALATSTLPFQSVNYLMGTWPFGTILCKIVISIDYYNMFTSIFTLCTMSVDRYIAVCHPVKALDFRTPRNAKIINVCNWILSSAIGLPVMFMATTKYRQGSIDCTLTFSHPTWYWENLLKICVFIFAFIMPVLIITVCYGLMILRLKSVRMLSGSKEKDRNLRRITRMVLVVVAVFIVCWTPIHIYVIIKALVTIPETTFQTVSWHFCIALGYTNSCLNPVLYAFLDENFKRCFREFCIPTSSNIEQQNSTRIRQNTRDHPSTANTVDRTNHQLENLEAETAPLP

Columns and labels:
[1] = biological target: human opioid receptor-like receptor (ORL-1) (Homo sapiens, UniProt P41146); assay: Nociceptin affinity at the ORL1 receptor ([35S]GTPgS binding, HEK-293 membranes); conditions: read-out: Nociceptin Affinity calc Ki, membranes from recombinant HEK-293 cells expressing human ORL-1
[2] = biological target: Mu opioid receptor (Homo sapiens, UniProt P35372); assay: Affinity at the μ receptor ([35S]GTPγS binding, membranes); conditions: read-out: Mu Receptor Affinity calc Ki; Table 5; mu opioid receptor membrane solution

Compound	Ki ([1]; Table 3) [nM]	Ki ([1]; Table 4 (headed TABLE 45)) [nM]	Ki [2] [nM]
CC(C)CCC(C)NC1CCC(n2c(=O)[nH]c3cc(C(N)=O)ccc32)CC1 (stereo not shown)	> 10000	–	–
CC(C)C1CCC(NC2CCC(n3c(=O)[nH]c4ccccc43)CC2)CC1 (stereo not shown)	> 10000	–	–
NC(=O)c1ccc2c(c1)[nH]c(=O)n2C1CCC(NC2CCC(c3ccccc3)CC2)CC1 (stereo not shown)	> 10000	–	–
1-[4-[(1,2,3,4-tetrahydronaphthyl)amino]-cyclohexyl]-5-carbamoyl-1,3-dihydro-2H-benzimidazol-2-one	> 10000	–	–
NC(=O)c1ccc2c(c1)[nH]c(=O)n2C1CCC(N(Cc2ccccc2)Cc2ccccc2)CC1 (stereo not shown)	> 10000	–	–
2-cyanoimino-3-acetomido-1-[1-(cyclooctyl)-4-piperidinyl]-1,3-dihydro-2H-benzimidazole	–	11	–
CCNC1CCC(n2c(=O)[nH]c3ccccc32)CC1 (stereo not shown)	9180	–	–
CCn1c(=O)n(Cc2ccccc2)c2ccccc21	296	–	–
NC(=O)c1ccc2c(c1)[nH]c(=O)n2C1CCC(NCc2ccc(-c3ccccc3)cc2)CC1 (stereo not shown)	> 10000	–	–
2-cyanoimino-1-[1-(cyclooctyl)-2,6-ethano-4-one-4-piperidinyl]-1,3-dihydro-2H-benzimidazole	–	19	–
CCn1c(=O)n(C2CCC(NC3CCC4CCCCC4C3)CC2)c2ccccc21 (stereo not shown)	288	–	–
CCn1c(=O)n(C2CCC(N(Cc3ccccc3)C3Cc4ccccc4C3)CC2)c2ccccc21 (stereo not shown)	> 10000	–	–
NC(=O)c1ccc2c(c1)[nH]c(=O)n2C1CCC(NC2CCC3CCCCC3C2)CC1 (stereo not shown)	> 10000	–	–
NC(=O)c1ccc2c(c1)[nH]c(=O)n2C1CCC(NC2CCCCCCC2)CC1 (stereo not shown)	> 10000	–	–
CCN(Cc1ccc2ccccc2c1)C1CCC(n2c(=O)[nH]c3ccccc32)CC1 (stereo not shown)	3600	–	–
CCn1c(=O)n(C2CCC(Nc3ccc4ccccc4c3)CC2)c2ccccc21 (stereo not shown)	961	–	2.1

Compound	Ki ([1]; Table 3) [nM]	Ki ([1]; Table 4 (headed TABLE 45)) [nM]	Ki [2] [nM]
CCn1c(=O)n(CCCCC(C)(c2ccc(F)cc2)c2cccc(F)c2)c2ccccc21 (stereo not shown)	148	–	–
O=c1[nH]c2ccccc2n1C1CCC(NC2CC3CCC2C3)CC1 (stereo not shown)	> 10000	–	–
NC(=O)c1ccc2c(c1)[nH]c(=O)n2C1CCC(NCc2ccccc2)CC1 (stereo not shown)	> 10000	–	–
3-ethyl-1-(naphthylmethyl)-1,3-dihydro-2H-benzimidazol-2-one	39	–	–
CCCC1CCC(NC2CCC(n3c(=O)[nH]c4cc(C(N)=O)ccc43)CC2)CC1 (stereo not shown)	> 10000	–	–
O=c1[nH]c2ccccc2n1C1CCC(NC2CCC3CCCCC3C2)CC1 (stereo not shown)	> 10000	–	–
CCn1c(=O)n(C(C)CCC(C)C)c2ccccc21 (stereo not shown)	23	–	–
CC(C)CCC(C)NC1CCC(n2c(=O)[nH]c3cccc(C(N)=O)c32)CC1 (stereo not shown)	> 10000	–	–
CCn1c(=O)n(Cc2ccc(OCc3ccccc3)cc2)c2ccccc21	438	–	–
CCn1c(=O)n(Cc2ccc(-c3ccccc3)cc2)c2ccccc21	509	–	–
2-cyanoimino-3-ethyl-1-[1-(1,2,3,4-tetrahydronaphthyl)-4-piperidinyl]-1,3-dihydro-2H-benzimidazole	–	157	458
CCn1c(=O)n(Cc2ccc3ccccc3c2)c2ccccc21	198	–	–
CCCC1CCC(n2c(=O)n(CC)c3ccccc32)CC1 (stereo not shown)	68	–	–
NC(=O)c1ccc2c(c1)[nH]c(=O)n2C1CCC(NC2Cc3ccccc3C2)CC1 (stereo not shown)	> 10000	–	–
CCn1c(=O)n(C2CCC(NCc3ccc(OCc4ccccc4)cc3)CC2)c2ccccc21 (stereo not shown)	2930	–	–
CCn1c(=O)n(C2CCC3CCCCC3C2)c2ccccc21 (stereo not shown)	1.6	–	–

Like-named read-outs stand apart in the source and are kept apart here.
